# Measured values taken from PubChem BioAssay (EPA / NIEHS).
# Protein sequences, listed by entry. Tags and fused reporters are not part of them. Lines headed by an entry give the natural chain unless they say otherwise; changes in a name come on top.
# UniProt P23975, whole entry, looked up: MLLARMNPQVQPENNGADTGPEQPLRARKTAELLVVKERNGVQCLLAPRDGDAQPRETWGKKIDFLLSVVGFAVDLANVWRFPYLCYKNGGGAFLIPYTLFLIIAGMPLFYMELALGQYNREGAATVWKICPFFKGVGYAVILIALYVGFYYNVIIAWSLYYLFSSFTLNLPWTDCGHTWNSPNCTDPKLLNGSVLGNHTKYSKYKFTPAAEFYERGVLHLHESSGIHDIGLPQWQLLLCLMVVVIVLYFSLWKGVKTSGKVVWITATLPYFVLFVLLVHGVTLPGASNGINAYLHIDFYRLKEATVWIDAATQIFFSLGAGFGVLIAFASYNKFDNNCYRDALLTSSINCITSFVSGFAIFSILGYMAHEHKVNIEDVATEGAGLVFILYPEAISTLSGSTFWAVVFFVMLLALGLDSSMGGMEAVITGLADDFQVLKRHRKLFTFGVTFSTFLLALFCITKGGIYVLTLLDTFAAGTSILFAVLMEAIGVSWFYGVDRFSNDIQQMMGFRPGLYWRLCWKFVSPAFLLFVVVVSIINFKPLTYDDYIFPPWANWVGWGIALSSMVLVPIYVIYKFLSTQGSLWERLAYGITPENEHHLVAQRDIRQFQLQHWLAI
# UniProt P10275: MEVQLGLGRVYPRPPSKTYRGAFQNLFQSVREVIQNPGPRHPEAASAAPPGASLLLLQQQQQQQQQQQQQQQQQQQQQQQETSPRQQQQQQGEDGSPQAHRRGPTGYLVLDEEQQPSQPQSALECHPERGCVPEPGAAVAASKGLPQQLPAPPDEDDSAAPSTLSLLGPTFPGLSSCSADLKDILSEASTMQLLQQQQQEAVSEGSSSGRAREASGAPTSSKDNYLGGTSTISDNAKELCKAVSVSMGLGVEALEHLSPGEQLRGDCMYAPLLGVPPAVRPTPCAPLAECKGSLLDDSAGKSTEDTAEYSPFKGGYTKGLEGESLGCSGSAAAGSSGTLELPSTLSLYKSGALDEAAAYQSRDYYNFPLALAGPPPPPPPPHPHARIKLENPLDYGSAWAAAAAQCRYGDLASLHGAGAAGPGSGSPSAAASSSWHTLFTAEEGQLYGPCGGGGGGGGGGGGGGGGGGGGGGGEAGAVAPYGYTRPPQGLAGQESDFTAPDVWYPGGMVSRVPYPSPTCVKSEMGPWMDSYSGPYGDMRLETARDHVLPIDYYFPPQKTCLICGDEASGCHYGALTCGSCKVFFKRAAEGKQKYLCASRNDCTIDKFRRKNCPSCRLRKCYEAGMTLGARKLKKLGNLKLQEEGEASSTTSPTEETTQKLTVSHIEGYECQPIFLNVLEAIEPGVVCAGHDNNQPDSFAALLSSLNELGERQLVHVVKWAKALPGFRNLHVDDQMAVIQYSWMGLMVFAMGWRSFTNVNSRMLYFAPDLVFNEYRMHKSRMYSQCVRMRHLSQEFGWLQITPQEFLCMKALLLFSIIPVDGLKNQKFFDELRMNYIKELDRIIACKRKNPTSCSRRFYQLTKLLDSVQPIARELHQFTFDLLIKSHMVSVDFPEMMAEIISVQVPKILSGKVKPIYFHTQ
# UniProt P19793: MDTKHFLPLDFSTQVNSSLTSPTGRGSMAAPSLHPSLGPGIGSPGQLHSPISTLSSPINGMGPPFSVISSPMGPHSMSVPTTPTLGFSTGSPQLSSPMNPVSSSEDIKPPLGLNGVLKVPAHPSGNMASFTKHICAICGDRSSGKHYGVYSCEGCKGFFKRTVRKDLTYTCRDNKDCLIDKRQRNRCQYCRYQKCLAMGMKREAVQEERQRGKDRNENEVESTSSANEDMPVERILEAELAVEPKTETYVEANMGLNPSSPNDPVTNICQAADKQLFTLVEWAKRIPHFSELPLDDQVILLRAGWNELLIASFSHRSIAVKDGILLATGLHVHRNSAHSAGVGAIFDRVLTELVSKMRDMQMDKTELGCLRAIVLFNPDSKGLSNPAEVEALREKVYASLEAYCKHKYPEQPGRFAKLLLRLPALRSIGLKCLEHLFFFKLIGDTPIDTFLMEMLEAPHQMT
# UniProt P37231: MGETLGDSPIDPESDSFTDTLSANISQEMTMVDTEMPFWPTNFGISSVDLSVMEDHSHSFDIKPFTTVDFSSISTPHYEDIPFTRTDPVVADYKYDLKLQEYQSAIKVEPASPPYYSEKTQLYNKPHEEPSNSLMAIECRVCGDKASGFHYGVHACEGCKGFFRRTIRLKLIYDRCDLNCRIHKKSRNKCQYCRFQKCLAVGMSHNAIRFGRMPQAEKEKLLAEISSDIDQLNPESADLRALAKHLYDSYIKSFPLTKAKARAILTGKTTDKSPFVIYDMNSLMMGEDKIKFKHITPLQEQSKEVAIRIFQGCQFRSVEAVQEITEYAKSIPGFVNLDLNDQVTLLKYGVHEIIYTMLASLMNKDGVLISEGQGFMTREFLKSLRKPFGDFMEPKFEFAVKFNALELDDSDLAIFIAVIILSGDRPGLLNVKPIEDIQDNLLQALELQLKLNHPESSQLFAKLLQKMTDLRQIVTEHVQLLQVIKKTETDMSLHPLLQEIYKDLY
# UniProt O75469: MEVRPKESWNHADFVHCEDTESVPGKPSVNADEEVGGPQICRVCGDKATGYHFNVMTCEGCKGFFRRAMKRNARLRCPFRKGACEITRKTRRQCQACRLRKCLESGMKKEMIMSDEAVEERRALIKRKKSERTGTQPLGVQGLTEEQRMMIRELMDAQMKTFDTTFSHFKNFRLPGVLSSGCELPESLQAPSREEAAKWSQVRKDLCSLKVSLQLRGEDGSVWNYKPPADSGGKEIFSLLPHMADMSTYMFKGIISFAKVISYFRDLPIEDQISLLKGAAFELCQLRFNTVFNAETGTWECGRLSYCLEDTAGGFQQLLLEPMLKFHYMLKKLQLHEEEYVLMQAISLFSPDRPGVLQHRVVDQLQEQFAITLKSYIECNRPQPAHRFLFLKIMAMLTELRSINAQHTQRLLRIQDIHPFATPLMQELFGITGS
# UniProt Q92731, whole entry, looked up: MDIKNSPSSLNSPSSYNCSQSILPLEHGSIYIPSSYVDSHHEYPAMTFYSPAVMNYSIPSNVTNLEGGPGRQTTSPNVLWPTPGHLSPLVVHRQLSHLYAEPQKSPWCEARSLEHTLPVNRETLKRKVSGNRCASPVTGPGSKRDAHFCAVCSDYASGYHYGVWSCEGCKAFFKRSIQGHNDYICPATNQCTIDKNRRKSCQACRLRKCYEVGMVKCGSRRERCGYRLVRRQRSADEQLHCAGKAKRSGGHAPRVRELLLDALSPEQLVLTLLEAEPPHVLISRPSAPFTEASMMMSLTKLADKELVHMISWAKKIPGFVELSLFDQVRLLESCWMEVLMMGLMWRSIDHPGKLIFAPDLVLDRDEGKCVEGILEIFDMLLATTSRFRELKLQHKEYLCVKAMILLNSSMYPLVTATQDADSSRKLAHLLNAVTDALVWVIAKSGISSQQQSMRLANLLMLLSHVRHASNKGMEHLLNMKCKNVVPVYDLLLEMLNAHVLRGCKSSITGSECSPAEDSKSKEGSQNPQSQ
# UniProt P03372, whole entry, looked up: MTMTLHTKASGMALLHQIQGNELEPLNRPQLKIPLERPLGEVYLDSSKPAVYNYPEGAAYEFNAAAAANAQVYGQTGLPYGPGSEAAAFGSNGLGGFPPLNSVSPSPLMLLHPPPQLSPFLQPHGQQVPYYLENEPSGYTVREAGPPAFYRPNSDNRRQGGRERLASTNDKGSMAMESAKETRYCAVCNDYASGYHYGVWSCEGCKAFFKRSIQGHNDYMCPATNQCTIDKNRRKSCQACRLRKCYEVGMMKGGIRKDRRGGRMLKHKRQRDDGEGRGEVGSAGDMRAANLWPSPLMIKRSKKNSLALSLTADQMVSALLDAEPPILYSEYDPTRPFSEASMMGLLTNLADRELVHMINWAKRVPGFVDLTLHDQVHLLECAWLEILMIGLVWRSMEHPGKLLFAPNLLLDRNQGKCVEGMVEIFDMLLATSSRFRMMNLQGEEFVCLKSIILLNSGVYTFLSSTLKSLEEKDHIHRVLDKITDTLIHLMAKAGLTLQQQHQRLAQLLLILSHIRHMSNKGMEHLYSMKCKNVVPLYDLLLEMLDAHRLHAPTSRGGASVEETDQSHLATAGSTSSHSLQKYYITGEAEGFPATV
# UniProt P15207: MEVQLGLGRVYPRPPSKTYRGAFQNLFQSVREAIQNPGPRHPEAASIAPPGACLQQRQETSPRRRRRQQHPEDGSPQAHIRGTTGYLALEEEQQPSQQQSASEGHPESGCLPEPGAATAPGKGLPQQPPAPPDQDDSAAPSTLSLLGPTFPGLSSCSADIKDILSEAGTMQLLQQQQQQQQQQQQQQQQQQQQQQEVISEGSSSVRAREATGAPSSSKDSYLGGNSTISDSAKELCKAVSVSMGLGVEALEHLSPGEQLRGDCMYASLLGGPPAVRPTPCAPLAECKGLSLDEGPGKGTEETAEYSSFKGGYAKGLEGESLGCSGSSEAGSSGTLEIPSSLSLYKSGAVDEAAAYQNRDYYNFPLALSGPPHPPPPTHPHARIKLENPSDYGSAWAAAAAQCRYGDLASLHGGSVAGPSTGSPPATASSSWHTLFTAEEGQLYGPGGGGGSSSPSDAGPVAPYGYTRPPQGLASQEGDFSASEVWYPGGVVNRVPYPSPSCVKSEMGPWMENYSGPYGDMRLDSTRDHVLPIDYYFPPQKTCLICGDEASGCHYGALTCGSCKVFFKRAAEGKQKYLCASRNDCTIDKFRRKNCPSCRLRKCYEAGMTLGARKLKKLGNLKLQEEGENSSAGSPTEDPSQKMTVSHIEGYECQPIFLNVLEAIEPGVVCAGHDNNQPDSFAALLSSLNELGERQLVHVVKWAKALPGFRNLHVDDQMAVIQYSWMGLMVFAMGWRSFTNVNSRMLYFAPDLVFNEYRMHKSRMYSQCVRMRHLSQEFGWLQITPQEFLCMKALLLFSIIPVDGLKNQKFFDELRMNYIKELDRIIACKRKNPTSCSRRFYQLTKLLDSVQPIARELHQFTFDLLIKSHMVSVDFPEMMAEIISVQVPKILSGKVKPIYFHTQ
# UniProt Q01827, whole entry, looked up: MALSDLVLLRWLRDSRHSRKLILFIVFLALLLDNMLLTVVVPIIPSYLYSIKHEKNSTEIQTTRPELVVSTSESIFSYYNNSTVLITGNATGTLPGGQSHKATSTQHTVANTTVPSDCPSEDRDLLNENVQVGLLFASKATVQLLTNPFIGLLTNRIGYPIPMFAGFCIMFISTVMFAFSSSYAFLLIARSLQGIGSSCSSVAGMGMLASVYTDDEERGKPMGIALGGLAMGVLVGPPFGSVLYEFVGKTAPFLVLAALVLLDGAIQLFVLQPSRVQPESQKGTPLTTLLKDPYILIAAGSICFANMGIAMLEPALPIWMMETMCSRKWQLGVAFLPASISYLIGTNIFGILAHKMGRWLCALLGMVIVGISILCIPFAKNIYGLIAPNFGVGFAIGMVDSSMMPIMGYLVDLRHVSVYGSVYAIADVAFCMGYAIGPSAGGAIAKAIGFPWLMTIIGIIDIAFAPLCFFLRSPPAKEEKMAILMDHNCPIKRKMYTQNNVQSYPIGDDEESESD
# UniProt Q96RI1: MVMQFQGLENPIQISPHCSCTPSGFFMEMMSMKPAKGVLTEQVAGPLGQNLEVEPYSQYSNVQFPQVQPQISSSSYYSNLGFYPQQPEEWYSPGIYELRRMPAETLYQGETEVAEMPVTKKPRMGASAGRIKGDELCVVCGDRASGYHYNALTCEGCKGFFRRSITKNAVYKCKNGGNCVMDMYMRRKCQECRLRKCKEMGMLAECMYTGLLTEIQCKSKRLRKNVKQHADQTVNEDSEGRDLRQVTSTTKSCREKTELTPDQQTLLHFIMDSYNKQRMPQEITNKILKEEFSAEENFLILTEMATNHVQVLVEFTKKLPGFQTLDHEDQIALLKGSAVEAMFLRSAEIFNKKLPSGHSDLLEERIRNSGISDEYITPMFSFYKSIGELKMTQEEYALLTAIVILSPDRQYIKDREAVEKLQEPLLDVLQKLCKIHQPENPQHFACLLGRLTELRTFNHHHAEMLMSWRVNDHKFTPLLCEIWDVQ
# UniProt Q01959, whole entry, looked up: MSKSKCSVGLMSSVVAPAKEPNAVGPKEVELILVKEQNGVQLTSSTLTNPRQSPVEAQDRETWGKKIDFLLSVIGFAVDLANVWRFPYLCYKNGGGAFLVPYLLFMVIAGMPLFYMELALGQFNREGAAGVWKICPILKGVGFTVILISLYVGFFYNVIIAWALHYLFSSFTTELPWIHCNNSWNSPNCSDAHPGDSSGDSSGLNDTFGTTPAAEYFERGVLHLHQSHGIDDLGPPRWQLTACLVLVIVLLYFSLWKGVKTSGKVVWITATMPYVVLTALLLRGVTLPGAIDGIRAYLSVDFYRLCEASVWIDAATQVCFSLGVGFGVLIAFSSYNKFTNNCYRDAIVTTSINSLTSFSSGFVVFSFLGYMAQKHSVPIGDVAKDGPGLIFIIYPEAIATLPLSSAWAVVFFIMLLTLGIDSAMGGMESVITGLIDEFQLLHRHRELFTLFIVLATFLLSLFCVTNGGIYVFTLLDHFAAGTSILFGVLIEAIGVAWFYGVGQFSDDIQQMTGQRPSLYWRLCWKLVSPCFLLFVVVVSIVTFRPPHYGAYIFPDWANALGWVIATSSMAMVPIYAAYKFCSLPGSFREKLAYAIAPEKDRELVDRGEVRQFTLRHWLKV
# “And” between values parts separate entries of the source, which are not always exact repeats. Identical values can stand only once. The entries are a selection whose mix differs from that of the whole data set. Results filed as inconclusive are left out. The source made the active and inactive calls. Rule for the calls, unless noted: active = hit-call score of the fitted dose curve at least 0.9, where 1 is the maximum; inconclusive = response in the unintended direction; inactive = score below 0.9.
# What was measured:
# [1] = biological target: human Norepinephrine Transporter (NET), SLC6A2 (gene 6530) (UniProt P23975); experiment: NVS_TR_hNET: NovaScreen (NVS) Transporter Assay for human Norepinephrine Transporter (NET) (AID 2283377);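 note: cell-free membrane protein extracted from CHO cells expressing human NET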
# In short: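 Scintillation counts of filter-retained radioligand served as the readout, taken 1 h post-dosing in a cell-free CHO-derived system. Test chemicals ran first at 25 uM in duplicate; confirmed hits were retested across concentrations.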
# [2] = biological target: mouse Estrogen Receptor alpha (Era), Esr1 (gene 13982) (UniProt P19785); experiment: NVS_NR_mERa: NovaScreen (NVS) Nuclear Receptor Binding Assay for mouse Estrogen Receptor alpha (Era) (AID 2283378);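 note: hit means loss of bound radioligand signal relative to DMSO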
# In short: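 Cell-free radioligand competitive displacement binding, read by filter-based scintillation counting 18 h after dosing. Primary screen run in duplicate at 25 uM, actives retested in concentration series; loss of signal versus DMSO.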
# [3] = biological target: Agonist Androgen Response Element (ARE), AR (gene 367) (UniProt P10275); experiment: OT_AR_ARELUC_AG_1440: Odyssey Thera (OT) 24-hour CHO-K1 Luciferase Assay for Agonist Androgen Response Element (ARE) (AID 2283379)
# In short: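 Agonist mode, 24 h exposure in CHO-K1 ARE-luciferase cells; values reflect luminescence induction over vehicle.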
# [4] = biological target: Retinoic acid receptor RXR-alpha (Homo sapiens) (UniProt P19793); experiment: OT_NURR1_NURR1RXRa_1440: Odyssey Thera (OT) 24-hour HEK293T Protein Complementation Assay for Nurr1/retinoid X receptor (RXR) (AID 2283386)
# In short: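 HEK293T protein-fragment complementation of Nurr1 and RXRα fused to reporter fragments; compounds 24 h. Fluorescence gain from reconstituted reporter fitted versus DMSO.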
# [5] = biological target: Peroxisome proliferator-activated receptor gamma (Homo sapiens) (UniProt P37231); experiment: OT_PPARg_PPARgSRC1_0480: Odyssey Thera (OT) 8-hour Protein-Complementation Assay for Peroxisome Proliferator-activated Receptor Gamma / SRC-1 Co-activator (AID 2283387)
# In short: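 Protein-fragment complementation in HEK293T: Venus YFP halves (residues 1-158, 159-239, mutated to IFP1/IFP2) fused to PPARg/SRC-1. 8 h exposure; N/C ratio at 488 nm; DMSO negative control.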
# [6] = biological target: Peroxisome proliferator-activated receptor gamma (Homo sapiens) (UniProt P37231); experiment: OT_PPARg_PPARgSRC1_1440: Odyssey Thera (OT) 24-hour Protein-Complementation Assay for Peroxisome Proliferator-activated Receptor Gamma/ SRC-1 Co-activator (AID 2283388)
# In short: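 HEK293T transiently transfected with PPARg/SRC-1 split-Venus YFP fusions 48 h before dosing, then treated 24 h at 37C. Fixed cells imaged; nuclear/cytoplasmic 488 nm fluorescence ratio, gain of signal versus DMSO.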
# [7] = biological target: Nuclear receptor subfamily 1 group I member 2 (Homo sapiens) (UniProt O75469); experiment: NVS_NR_hPXR: NovaScreen (NVS) Nuclear Receptor Binding Assay for human Pregnane X Receptor (PXR) (AID 2283365);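 note: a drop in FRET signal versus DMSO baseline means the compound binds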
# In short: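 Cell-free TR-FRET binding assay with extracted human PXR protein, read 2 h after dosing. Primary screen run in duplicate at 25 uM, actives followed in concentration series; loss of signal fitted against DMSO baseline.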
# [8] = biological target: Estrogen receptor beta (Homo sapiens) (UniProt Q92731); experiment: OT_ER_ERbERb_1440: Odyssey Thera (OT) 24-hour HEK293T Protein-Complementation Assay for Estrogen Receptor-beta/-beta Homodimer (AID 2283380);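 note: fluorescence gain from ER beta LBD homodimer complementation read by laser scanning cytometry; scored as signal increase over DMSO baseline for both agonists and antagonists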
# In short: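 Fluorescence increase, nuclear for agonists or whole-cell for antagonists, relative to DMSO vehicle, quantified by laser scanning cytometer after fixation and Draq5 staining. Readout from 24 h treatment of HEK293T cells carrying complementation-paired ER beta LBD (aa 310-547).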
# [9] = biological target: Estrogen receptor (Homo sapiens) (UniProt P03372); experiment: OT_ERa_GFPERaERE_0480: Odyssey Thera (OT) 8-hour HeLa Transcription Induction Assay for Estrogen Receptor (AID 2283381; active = hit-call score of the fitted dose curve at least 0.9, where 1 is the maximum; inactive = score below 0.9)
# In short: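 HeLa cells expressing GFP reporter under estrogen response element, imaged 8 h after dosing. GFP induction quantified by high-content fluorescence microscopy image analysis; gain of signal fitted versus DMSO.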
# [10] = biological target: Estrogen receptor (Homo sapiens) (UniProt P03372); experiment: OT_ERa_GFPERaERE_0120: Odyssey Thera (OT) 2-hour HeLa Transcription Induction Assay for Estrogen Receptor (AID 2283382)
# In short: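 HeLa cells were dosed for 2 h, then GFP reporter induction was quantified by fluorescence microscopy with high-content image analysis. Gain of signal fitted against DMSO baseline.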
# [11] = biological target: Retinoic acid receptor RXR-alpha (Homo sapiens) (UniProt P19793); experiment: OT_NURR1_NURR1RXRa_0480: Odyssey Thera (OT) 8-hour HEK293T Protein Complementation Assay for Nurr1/retinoid X receptor (RXR) (AID 2283385)
# In short: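 HEK293T cells expressing Nurr1 and RXRα fused to reporter fragments (protein-fragment complementation); fluorescence measured 8 h after dosing. Gain of signal fitted relative to DMSO.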
# [12] = biological target: rat Androgen Receptor (AR), Ar (gene 24208) (UniProt P15207); experiment: NVS_NR_rAR: NovaScreen (NVS) Nuclear Receptor Binding Assay for rat Androgen Receptor (AR) (AID 2283366)
# In short: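 Cell-free radioligand binding on extracts of prostate from testosterone-pretreated rats, read by filter-based scintillation counting 18 h after dosing. Loss of bound signal fitted positively versus DMSO; primary screen in duplicate at 25 uM, actives followed up in concentration series.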
# [13] = biological target: Peroxisome proliferator-activated receptor gamma (Homo sapiens) (UniProt P37231); experiment: NVS_NR_hPPARg: NovaScreen (NVS) Nuclear Receptor Binding Assay for human Peroxisome Proliferator-activated Receptor gamma (PPARg) (AID 2283370)
# In short: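 Cell-free fluorescence polarization binding to human PPARg protein, read 2 h after dosing. Primary screen in duplicate at 25 uM, actives followed in concentration series; loss of signal relative to DMSO scored.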
# [14] = biological target: Norway rat Vesicular Monoamine Transporter (VMAT2), neurotransmitter transporter, Slc18a2 (gene 25549) (UniProt Q01827); experiment: NVS_TR_rVMAT2: NovaScreen (NVS) Transporter Assay for Norway rat Vesicular Monoamine Transporter (VMAT2), neurotransmitter transporter (AID 2283376);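 note: actives lower the bound radioligand signal below the DMSO level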
# In short: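 Tissue: rat forebrain extract. Format: competitive radioligand binding, cell-free. Timepoint: 1 h. Readout: filter radiodetection/scintillation. Screen: 25 uM in duplicate, then concentration series for actives. Baseline: DMSO.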
# [15] = biological target: Bile acid receptor (Homo sapiens) (UniProt Q96RI1); experiment: OT_FXR_FXRSRC1_0480: Odyssey Thera (OT) 8-hour HEK293T Protein-Complementation Assay for Farnesoid X receptor/SRC-1 Co-activator (AID 2283383)
# In short: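 HEK293T protein-fragment complementation assay: FXR and SRC-1 coactivator are fused to reporter fragments, and their interaction restores a fluorescent reporter. Readout was taken 8 h after dosing, with gain of signal fit relative to DMSO.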
# [16] = biological target: Bile acid receptor (Homo sapiens) (UniProt Q96RI1); experiment: OT_FXR_FXRSRC1_1440: Odyssey Thera (OT) 24-hour HEK293T Protein-Complementation Assay for Farnesoid X receptor/SRC-1 Co-activator (AID 2283384)
# In short: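 HEK293T cells, 24 h after chemical dosing. FXR–SRC-1 coactivator interaction read as fluorescence from protein-fragment complementation of a split reporter. Gain of signal fitted against DMSO baseline.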
# [17] = test system: guinea pig Dopamine Transporter (DAT), gene 100714898; experiment: NVS_TR_gDAT: NovaScreen (NVS) Transporter Assay for guinea pig Dopamine Transporter (DAT) (AID 2283369);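 note: active compounds lower bound radioligand signal relative to DMSO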
# In short: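 Guinea pig striatal membranes, cell-free radioligand binding with filter-based scintillation counting, read 2 h after dosing. Loss of signal versus DMSO baseline; single-concentration primary (25 uM) then concentration-response up to 50 uM.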
# [18] = biological target: human Dopamine Transporter (DAT), SLC6A3 (gene 6531) (UniProt Q01959); experiment: NVS_TR_hDAT: NovaScreen (NVS) Transporter Assay for human Dopamine Transporter (DAT) (AID 2283374);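 note: activity means loss of bound radioligand signal relative to DMSO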
# In short: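 Test chemicals were first screened in duplicate at 25 uM, with actives retested as concentration series. Displacement of a specific radioligand from cell-free human dopamine transporter was measured after 1 h by filtration and scintillation counting.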
# [19] = CEETOX_H295R_11DCORT: CeeTox H295R High-throughput Steroidogenesis Assay for 11-Deoxycortisol (11DCORT) (AID 2283432; active = hit-call score of the fitted dose curve at least 0.9, where 1 is the maximum; inactive = score below 0.9); settings: actives raise or lower the signal
# In short: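 Adrenal carcinoma line H295R, run per OECD 456 with minor changes, was forskolin-stimulated (10 uM, 48 h) before a 48 h chemical exposure at 0.1% DMSO. Secreted 11-deoxycortisol was quantified by HPLC-MS/MS.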
# [20] = CEETOX_H295R_OHPREG: CeeTox H295R High-throughput Steroidogenesis Assay for OH-Pregnenolone (OHPREG) (AID 2283434; active = hit-call score of the fitted dose curve at least 0.9, where 1 is the maximum; inactive = score below 0.9); settings: actives raise or lower the signal
# In short: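 Hormone levels in spent medium were measured by tandem mass spectrometry following liquid-liquid extraction. Cells (H295R) had been forskolin-stimulated (10 uM, 48 h) before a 48 h chemical exposure at 0.1% DMSO, with activity fitted in both directions against DMSO.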
smiles,measurement,setting,value
O=C(Cl)OCCOC(=O)Cl,outcome,[1],inactive
O=[P+](Oc1ccccc1)Oc1ccccc1,AC50,[2],active: 25 µM
same,outcome,[3],inactive
same,outcome,[4],inactive
same,outcome,[5],inactive
same,outcome,[6],inactive
ClP(Cl)c1ccccc1,outcome,[7],inactive
same,AC50,[2],active: 0.0841 µM
same,outcome,[8],inactive
same,outcome,[9],inactive
same,outcome,[10],inactive
same,outcome,[11],inactive
same,outcome,[5],inactive
same,outcome,[6],inactive
Cc1cc([N+](=O)[O-])cc([N+](=O)[O-])c1O,outcome,[12],inactive
same,outcome,[13],inactive
same,outcome,[14],inactive
same,outcome,[3],inactive
same,outcome,[15],inactive
same,outcome,[16],inactive
same,outcome,[11],inactive
same,outcome,[4],inactive
same,outcome,[5],inactive
same,outcome,[6],inactive
CC(C)OP(=S)(OC(C)C)SCCNS(=O)(=O)c1ccccc1,AC50,[7],active: 2.52 µM
same,AC50,[17],active: 3.98 µM and active: 3 µM
same,outcome,[13],inactive
same,AC50,[18],active: 25 µM and active: 602 nM
same,AC50,[14],active: 832 nM and active: 13 µM and active: 6.28 µM
same,outcome,[5],inactive
same,outcome,[6],inactive
O=C1C2CC=CCC2C(=O)N1SC(Cl)(Cl)C(Cl)Cl (centres undefined),outcome,[3],inactive
same,outcome,[11],inactive
same,outcome,[4],inactive
same,outcome,[5],inactive
same,outcome,[6],inactive
same,outcome,[19],inactive
same,outcome,[20],inactive
CN(C(=O)Cc1cccc2occc12)[C@H]1CC[C@@]2(CCCO2)C[C@@H]1N1CCCC1,outcome,[8],inactive
same,outcome,[9],inactive
same,outcome,[10],inactive
same,outcome,[15],inactive
same,outcome,[16],inactive
same,outcome,[11],inactive
same,outcome,[4],inactive
same,outcome,[5],inactive
same,outcome,[6],inactive
CC(C)CCCCCCCOP(OCCCCCCCC(C)C)Oc1ccccc1,outcome,[8],inactive
same,outcome,[9],inactive
same,outcome,[10],inactive
same,outcome,[11],inactive
same,outcome,[5],inactive
same,outcome,[6],inactive
O=C(Cl)Oc1ccccc1,outcome,[1],inactive
